These results are taken from ChEMBL document CHEMBL4732251, “Synthesis and evaluation of the epithelial-to- mesenchymal inhibitory activity of indazole-derived imidazoles as dual ALK5/p38α MAP inhibitors” (Eur J Med Chem, 2021).

Amino acid sequences for entries named in this document (tags omitted).
UniProt Q16539, whole entry: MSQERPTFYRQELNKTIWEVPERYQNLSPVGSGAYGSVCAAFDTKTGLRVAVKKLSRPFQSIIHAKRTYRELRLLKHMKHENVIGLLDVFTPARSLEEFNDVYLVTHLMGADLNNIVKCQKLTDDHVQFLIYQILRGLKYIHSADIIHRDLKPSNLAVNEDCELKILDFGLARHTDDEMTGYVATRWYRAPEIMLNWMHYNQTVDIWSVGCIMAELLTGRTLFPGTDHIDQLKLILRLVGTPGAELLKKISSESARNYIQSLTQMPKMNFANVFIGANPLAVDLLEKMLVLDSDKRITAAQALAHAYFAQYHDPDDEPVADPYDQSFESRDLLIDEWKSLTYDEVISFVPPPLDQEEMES

The target in assay [1] is T1, Mitogen-activated protein kinase 14 (Homo sapiens, UniProt Q16539). Put plainly: Potency index, ratio of EW-7197 IC50 to test compound IC50 for recombinant human p38alpha expressed in Escherichia coli assessed as incoporation of [33]Pi after 60 mins in presence of [gamma-33P]-ATP by microplate scintillation counter method.
Assay [2] has as its target T1, Mitogen-activated protein kinase 14. Put plainly: Potency index, ratio of LY-2157299 IC50 to test compound IC50 for recombinant human p38alpha expressed in Escherichia coli assessed as incoporation of [33]Pi after 60 mins in presence of [gamma-33P]-ATP by microplate scintillation counter method.

Structures are written as SMILES.

For the compound `Cc1cccc(-c2[nH]c(CNc3cccc(F)c3)nc2-c2ccc3[nH]ncc3c2)n1`, the Ratio IC50 in assay [1] came out at 738; in assay [2] it was 123.
